Earlier results as cited in publication PMC12169663, “Deciphering the Tumor Uptake of Heterobivalent (SST2/Albumin) [^64Cu]Cu-NODAGA-cLAB-TATEs” (Journal of Medicinal Chemistry, 2025).

Sequences of proteins named here, by UniProt entry; tags and fusion partners are left off. Residues count along the entry.
UniProt P02768, 25-609 limits assumed: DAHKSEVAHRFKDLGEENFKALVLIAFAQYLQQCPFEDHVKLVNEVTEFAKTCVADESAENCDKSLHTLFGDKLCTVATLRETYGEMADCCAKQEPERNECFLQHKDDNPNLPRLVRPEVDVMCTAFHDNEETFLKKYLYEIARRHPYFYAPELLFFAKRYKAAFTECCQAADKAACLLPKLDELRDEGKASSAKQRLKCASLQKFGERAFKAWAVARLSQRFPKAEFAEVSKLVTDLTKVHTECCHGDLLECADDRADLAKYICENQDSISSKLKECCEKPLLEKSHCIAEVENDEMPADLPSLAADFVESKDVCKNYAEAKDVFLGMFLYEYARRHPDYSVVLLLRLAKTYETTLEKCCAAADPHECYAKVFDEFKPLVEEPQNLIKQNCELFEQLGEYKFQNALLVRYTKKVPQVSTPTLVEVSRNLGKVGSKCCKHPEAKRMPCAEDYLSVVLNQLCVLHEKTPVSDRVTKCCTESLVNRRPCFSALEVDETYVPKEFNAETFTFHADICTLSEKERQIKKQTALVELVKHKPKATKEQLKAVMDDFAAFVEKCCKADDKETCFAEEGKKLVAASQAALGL

Biological target: HSA (Homo sapiens, UniProt P02768)
Conditions: read-out: Kd value of the albumin binder; isolated albumin binder; ref 1 (SI: Brandt et al., J. Med. Chem. 2022); cited from earlier work

**Q.** For `Cc1ccc(CCCC(=O)NCCCC[C@H](NC(=O)c2ccc(N=[N+]=[N-])cc2)C(=O)O)cc1`, which Kd is on record?
**A.** 3000 nM
